# Earlier results, collected in patent publication US5624668A, “Iron dextran formulations” (Luitpold Pharmaceuticals, Inc., priority 1995, dated 1997).
# Settings: in vivo; cited from earlier work
substance,measurement,value
iron dextran,absorption of most of the remaining iron,3-4 weeks
same,absorption of the major portion of an intramuscular injection,≤ 72 h
same,bioavailability of the dose,almost the entire dose of iron dextran remains bioavailable
same,half life,5 to more than 20
same,iron lost via the urinary or alimentary pathways,Negligible amounts
same,renal excretion,not excreted by the kidneys
same,staining from inadvertent deposition in subcutaneous and cutaneous tissues,usually resolves or fades within several weeks or months
